ALDH1A1 inh = inhibitors of human aldehyde dehydrogenase 1A1. 7.3% of 220,000 active. AID 1030. Purified ALDH1A1, NADH fluorescence, propionaldehyde substrate. P00352. Potency, µM (doses to about 75.3 µM), for inactives: at the top dose activity, negative = inhibition, actives largely listed as inhibitors; active = well fitted inhibition curve with a large enough effect, not every such curve was filed as active; inconclusive = small, poorly fitted or top-dose-only effect, or another doubt; inactive = no such curve, though single readings can be large or run the other way;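 also: potency is read from the fitted curve at half-maximal effect; plate controls were no enzyme wells and a reference inhibitor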
G9a inh = G9a (human) methyltransferase inhibition | Q96KQ7 | 8.8% of 350,000 active | Potency, µM (series often up to 102 µM), for inactives: at the top dose activity, negative = inhibition, actives largely listed as inhibitors | G9a H3K9 monomethylation, AlphaScreen, 2 h; also: potency is read from the fitted curve at half-maximal effect; % is scaled to controls: 0 for no effect and ±100 for the full control effect; nearly all actives have a fitted effect of over 75% in size
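Using a bead-based AlphaScreen, monomethylated H3K9 product from 2 h room-temperature reactions (G9a 20 nM, peptide 500 nM, SAM 20 uM) was detected with 0.5 ug/mL rabbit anti-H3K9me1 antibody.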
KDM4E inh = blocks human JMJD2E demethylase activity. B2RXH2. Potency, µM (doses to about 57.1 µM), for inactives: at the top dose activity change, negative = inhibition, hits mostly inhibitors. 1.6% of 230,000 active. JMJD2E catalytic domain, FDH-coupled NADH fluorescence (FDH is formaldehyde dehydrogenase). AID 2147; active = well fitted inhibition curve with a large enough effect, not every such curve was filed as active; inconclusive = small, poorly fitted or top-dose-only effect, or another doubt; inactive = no such curve, though single readings can be large or run the other way;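 also: potency is read from the fitted curve at half-maximal effect; 0% = wells with enzyme and -100% = buffer wells without enzyme; nearly all actives have a fitted effect of over 50% in size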
Sfp PPTase inh = qHTS Assay for Inhibitors of Bacillus subtilis Sfp phosphopantetheinyl transferase (PPTase). Biochemical Sfp PPTase activity, qHTS. Potency, µM, inactives show max response, negative = inhibition, most hits filed as inhibitors. hit rate 3.5% among 310,000. 4'-phosphopantetheinyl transferase ffp (Bacillus subtilis), Q9F4F7; active = well fitted inhibition curve with a large enough effect; inconclusive = small, poorly fitted or top-dose-only effect, or another doubt; inactive = no such curve, though single readings can be large or run the other way;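 note: the enzyme is Sfp with the accession as filed and its product quenches rhodamine fluorescence; potency is the fitted concentration of half-maximal effect; 0% = enzyme reaction without inhibitor and -100% = no enzyme wells; top concentration of the series not given in the record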
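Buffer: 50 mM Hepes-Na pH 7.6, 10 mM MgCl2, 0.01% Nonidet P-40, 0.01% BSA. Enzyme 15 nM, pre-exposed to compound 15 min; substrates then added and fluorescence change tracked over 30 min.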
Lamin A splicing = modulators of lamin A splicing; HeLa LMNA splicing GFP/RFP minigene ratio, 48 h; Potency, µM (doses to about 46.1 µM), without a hit: at the top dose ratio change, negative = inhibition, actives largely listed as inhibitors; 0.01% of 200,000 active; AID 1487; active = well fitted inhibition curve with a large enough effect in the signal ratio, with a control signal flat, not every such curve was filed as active; inconclusive = small, poorly fitted or top-dose-only effect, or effect the other way, or a change in a side signal; the % refers to the signal ratio; also: potency is read from the fitted curve at half-maximal effect; % is scaled to controls: 0 for no effect and ±100 for the full control effect
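Read-out is the ratio of GFP to DsRed2 object intensity, acquired by 488 nm laser-scanning cytometry on HeLa lamin A-EGFP minigene reporter cells. Compound incubation 48 hrs at 37 °C in Opti-MEM with 2% FBS; DMSO 0.5% final.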
miR-21 reporter = raises the signal of a miR-21 reporter; HeLa miR-21 FLuc reporter, luciferase, 48 h; Potency, µM (highest dose often 38.3 µM), inactives show at the highest dose reporter change, positive = more light; 340,000 tested, under 10 active; active = well fitted rising curve with a large enough effect; inconclusive = small, poorly fitted or top-dose-only effect; inactive = no such curve, though single readings can be large or run the other way;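 note: % of control where 0% means no effect; miR-21 action dims this reporter so a rising signal means less miR-21 action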
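Compounds were titrated across several concentrations (up to approximately 40 uM) and incubated 48 hours with HeLa miR-21-FLuc reporter cells (miR-21 target sequence downstream of FLuc, endogenous miR-21). Readout was firefly luciferase luminescence after lytic detection reagent.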
Starred values were filed as active, the others as inactive; ? = inconclusive; / = not tested or not shown; ! = repeats disagree; [ ] = another dose, or the depositor's remark. Most compounds without a hit are left out; they make up all but 13% or so of the library. Unless noted, calls follow the shape of the dose curve; as a rule, active = well fitted curve in the direction sought with a large enough effect; inconclusive = small, poorly fitted or top-dose-only effect, or another doubt; inactive = no such curve, though single readings can be large; an effect the other way counts as inactive or inconclusive.

item	canonical_smiles	ALDH1A1 inh	G9a inh	KDM4E inh
1	O=C(Nc1ccc2c(c1)OCO2)c1cc(-c2ccc(O)cc2)on1	/	-7%	/
2	CC(C)Oc1ccc(CNC(=O)c2cc3cccc4c3n2CC(C)S4)cc1 (stereo unspecified)	/	18%[59 µM]	/
3	CCOc1cc(CNC(=O)Cn2ncn3c(cc4cc(F)ccc43)c2=O)cc(OCC)c1OCC	/	-10%[59 µM]	/
4	COc1cccc(C2C(C(=O)Nc3ccccc3)=C(C)Nc3nc(-c4ccccc4)nn32)c1 (stereo unspecified)	/	5%[59 µM]	/
5	CCOC(=O)N1CCN(C(=O)CCCn2c(=S)[nH]c3ccsc3c2=O)CC1	-3%	32µM*	-1%
6	O=C(CCCCn1c(=S)[nH]c2ccsc2c1=O)NCc1ccco1	5%	22µM*	-7%
7	CCOC(=O)N1CCN(C(=O)CCCn2c(=S)[nH]c3ccccc3c2=O)CC1	-5%	?	-1%
8	CCOC(=O)N1CCN(C(=O)CCCn2c(=S)[nH]c3ccc(Br)cc3c2=O)CC1	-5%	10µM*	-10%
9	O=C(CCCCCn1c(=S)[nH]c2ccccc2c1=O)N1CCOCC1	4%	35µM*	2%
10	CCOC(=O)C1CCCN(C(=O)CSc2ccccc2)C1 (stereo unspecified)	?	8%[59 µM]	-1%

item	Sfp PPTase inh	Lamin A splicing	miR-21 reporter
1	10%	/	-26%
2	/	/	11%
3	/	/	3%
4	/	/	10%
5	56µM*	/	-2%
6	?	13%	3%
7	?	13%	1%
8	-2%	-11%	-1%
9	?	-4%	-8%
10	4%	1%	-45%

Next section
item	canonical_smiles	ALDH1A1 inh	G9a inh	KDM4E inh
11	CCOC(=O)C1CCCN(C(=O)CSc2ccc(NC(C)=O)cc2)C1 (stereo unspecified)	-13%	35µM*	1%
12	CCOC(=O)C1CCCN(C(=O)CNC(=O)Cn2ccc3ccccc3c2=O)C1 (stereo unspecified)	-6%	14µM*	?
13	O=C(Cn1ccc2ccccc2c1=O)NCC(=O)N1CCCCC1	/	5%	/
14	CCOC(=O)C1CCCN(C(=O)c2ccc(Cl)cc2)C1 (stereo unspecified)	-7%	79µM*	-2%
15	CCOC(=O)C1CCCN(C(=O)c2cc(Cl)ccc2Cl)C1 (stereo unspecified)	4%	45µM*	-4%
16	COc1cccc(CNC(=O)CCc2nnc3n(C)c(=O)c4sccc4n23)c1	/	-4%[59 µM]	/
17	Cc1ccc(C(C)C)c(OCC(=O)Nc2c(C(=O)c3ccccc3)oc3ccccc23)c1	/	-9%[59 µM]	/
18	COc1ccc(Nc2nc3ccc(Cl)cc3n3nnnc23)cc1OC	/	-27%[59 µM]	/
19	CCN1CCN(C(=O)C2CCN(S(=O)(=O)N3CCC4(CC3)OCCO4)CC2)CC1	/	7%	/
20	CCOC(=O)C1CCCN(C(=O)c2ccc(OC)c([N+](=O)[O-])c2)C1 (stereo unspecified)	4.5µM*	3%[59 µM]	5%

item	Sfp PPTase inh	Lamin A splicing	miR-21 reporter
11	6%	9%[9.22 µM]	1%
12	14%	9%	-6%
13	13%	/	0%
14	27%	20%[9.22 µM]	2%
15	13%	1%	-5%
16	/	/	2%
17	/	/	-1%
18	/	/	-3%
19	20%	/	-1%
20	6%	4%	-7%

The final 2 records of the part before are carried over, then new ones follow.
item	canonical_smiles	ALDH1A1 inh	G9a inh	KDM4E inh
19	CCN1CCN(C(=O)C2CCN(S(=O)(=O)N3CCC4(CC3)OCCO4)CC2)CC1	/	7%	/
20	CCOC(=O)C1CCCN(C(=O)c2ccc(OC)c([N+](=O)[O-])c2)C1 (stereo unspecified)	4.5µM*	3%[59 µM]	5%
21	CCOC(=O)C1CCCN(C(=O)c2ccc([N+](=O)[O-])cc2)C1 (stereo unspecified)	?	0%[59 µM]	-2%
22	CCc1ccc(S(=O)(=O)c2nnn3c2nc(N2CCCC(C)C2)c2cc(Cl)ccc23)cc1 (stereo unspecified)	/	8%[59 µM]	/
23	CC(C)(C)NS(=O)(=O)c1cnc(Cl)c(Cl)c1	32µM*	58%[59 µM]	2%
24	Cc1ccc(-c2cc(C(=O)N3CC(C)OC(C)C3)c3ccccc3n2)o1 (stereo unspecified)	/	10µM*	/
25	Cc1ccc(-c2cc(C(=O)N3CC(C)CC(C)C3)c3ccccc3n2)o1 (stereo unspecified)	/	8.9µM*	/
26	CC1CCN(C(=O)c2cc3ccccc3cc2O)CC1	/	/	/
27	COC(=O)c1ccc(C(NC(=O)OCc2ccccc2)/C(F)=C/[C@@H](C)C(=O)N[C@@H](CO)Cc2ccccc2)cc1 (stereo partly specified)	-6%	/	-8%
28	O=C(NCCSCc1ccccc1Cl)C1CCN(S(=O)(=O)Cc2ccccc2)CC1	/	?	/
29	NC1(C(=O)O)CCCCC1	-6%	1.9µM*!	-13%
30	CCOc1ccccc1CNC(=O)c1cc2occc2n1C	?	25µM*	-2%

item	Sfp PPTase inh	Lamin A splicing	miR-21 reporter
19	20%	/	-1%
20	6%	4%	-7%
21	2%	6%	0%
22	/	/	4%
23	15%	3%	1%
24	/	/	/
25	22µM*	/	-10%
26	1%	/	-23%
27	33%	/	/
28	/	/	5%
29	/	?	/
30	-21%	-8%	-14%

Next part; it opens with the 2 that closed the last part.
item	canonical_smiles	ALDH1A1 inh	G9a inh	KDM4E inh
29	NC1(C(=O)O)CCCCC1	-6%	1.9µM*!	-13%
30	CCOc1ccccc1CNC(=O)c1cc2occc2n1C	?	25µM*	-2%
31	CSc1ncc(C(=O)Nc2ccccc2C(=O)c2ccccc2)c(C(F)(F)F)n1	/	8%[59 µM]	/
32	Cc1ccc(S(=O)(=O)N(C)C)cc1NC(=O)CCc1ccccc1	4.5µM*	6%	6%
33	Cc1ccc(S(=O)(=O)N(C)C)cc1NC(=O)Nc1ccccc1	/	-3%	3%
34	Cc1ccc(S(=O)(=O)N(C)C)cc1NC(=O)CCc1c[nH]c2ccccc12	4.5µM*	3%	3%
35	O=C(NCCN1CCOCC1)c1ccc2c(c1)N(Cc1cccc(F)c1)C(=O)c1ccccc1S2	28µM*	?	-4%
36	O=C(NCCN1CCOCC1)c1ccc(/C=C2\Sc3ccccc3N(Cc3ccccc3F)C2=O)cc1	/	/	/
37	CN1CCN(CCCNC(=O)c2ccc(/C=C3\Sc4ccccc4N(Cc4ccccc4F)C3=O)cc2)CC1	?	?	?
38	Cc1ccc(CN2C(=O)c3ccccc3Sc3ccc(C(=O)NCCCN4CCOCC4)cc32)cc1	/	14%[59 µM]	/
39	Cc1cccc(CN2C(=O)/C(=C\c3ccc(C(=O)NCCN4CCOCC4)cc3)Sc3ccccc32)c1	/	/	/
40	Cc1ccccc1CN1C(=O)/C(=C\c2ccc(C(=O)NCCN3CCOCC3)cc2)Sc2ccccc21	/	-3%[59 µM]	/

item	Sfp PPTase inh	Lamin A splicing	miR-21 reporter
29	/	?	/
30	-21%	-8%	-14%
31	/	-10%[46 µM]	0%
32	4%	6%[46 µM]	-3%
33	3%	/	8%
34	17%	-13%[46 µM]	1%
35	-13%	-1%[9.22 µM]	-1%
36	-19%	/	12%
37	40µM*	?	-21%
38	-15%	?	?
39	?	/	23%
40	-23%	/	3%

Further structures follow.
item	canonical_smiles	ALDH1A1 inh	G9a inh	KDM4E inh
41	CCN1CCN(CCNC(=O)c2ccc3c(c2)N(Cc2ccc(F)cc2)C(=O)/C(=C/c2ccccc2)S3)CC1	5%	?	-15%
42	CCN1CCN(CCNC(=O)c2ccc(/C=C3/Sc4ccccc4N(Cc4cccc(Cl)c4)C3=O)cc2)CC1	-7%	40µM*	?
43	CCn1ccc2cc(OC)ccc2c1=S	-3%	/	?
44	CCSc1ccc2cc(OC)ccc2[n+]1CC	?	20µM*	?
45	COC(=O)c1nn2c(C(F)(F)F)cc(-c3ccc(Br)o3)nc2c1Br	14µM*	45µM*	-25%
46	C/C(=N\NC(=O)c1ccc(NS(=O)(=O)c2cccs2)cc1)c1ccc(O)cc1O	?	/	13µM*

item	Sfp PPTase inh	Lamin A splicing	miR-21 reporter
41	50µM*	/	27%
42	50µM*	?	-6%
43	-107%	-9%	-7%
44	?	/	6%
45	6%	-4%	-1%
46	13%	/	-2%

Assay outcomes: PubChem, National Center for Advancing Translational Sciences (NCATS)
